We go through one compound from ChEMBL document CHEMBL4145657, “Potent and Selective Tetrahydroisoquinoline Kappa Opioid Receptor Antagonists of Lead Compound (3 R)- N-[1 R)-1-(Cyclohexylmethyl)-2-methylpropyl]-7-hydroxy-1,2,3,4-tetrahydroisoquinoline-3-carboxamide (CDTic)” (J Med Chem, 2018).

The series is described as follows: Ratio of clearance in plasma to brain of Sprague-Dawley rat at 5 mg/kg, sc measured after 1 to 168 hrs post dose by LC/MS-MS method. Type of series: ADME, organism-based. The note with it: in vivo.

Structures are written as SMILES.

For the compound `CC(C)[C@@H](CC1CCCC1)NC(=O)[C@H]1Cc2ccc(O)cc2CN1`, the Ratio is listed as 6.1.
